According to publication PMC9569420 (Communications Biology, 2022):
Values joined by “and” are separate entries in the source; they are usually repeats but may differ in a detail not shown here. Equal entries are not always repeated.

The chains behind the UniProt entries cited, without tags or fusion partners. Where a name states a change or a piece, a line headed by the entry shows the natural chain unless it says otherwise. Residues count along the entry.
UniProt Q9UL54: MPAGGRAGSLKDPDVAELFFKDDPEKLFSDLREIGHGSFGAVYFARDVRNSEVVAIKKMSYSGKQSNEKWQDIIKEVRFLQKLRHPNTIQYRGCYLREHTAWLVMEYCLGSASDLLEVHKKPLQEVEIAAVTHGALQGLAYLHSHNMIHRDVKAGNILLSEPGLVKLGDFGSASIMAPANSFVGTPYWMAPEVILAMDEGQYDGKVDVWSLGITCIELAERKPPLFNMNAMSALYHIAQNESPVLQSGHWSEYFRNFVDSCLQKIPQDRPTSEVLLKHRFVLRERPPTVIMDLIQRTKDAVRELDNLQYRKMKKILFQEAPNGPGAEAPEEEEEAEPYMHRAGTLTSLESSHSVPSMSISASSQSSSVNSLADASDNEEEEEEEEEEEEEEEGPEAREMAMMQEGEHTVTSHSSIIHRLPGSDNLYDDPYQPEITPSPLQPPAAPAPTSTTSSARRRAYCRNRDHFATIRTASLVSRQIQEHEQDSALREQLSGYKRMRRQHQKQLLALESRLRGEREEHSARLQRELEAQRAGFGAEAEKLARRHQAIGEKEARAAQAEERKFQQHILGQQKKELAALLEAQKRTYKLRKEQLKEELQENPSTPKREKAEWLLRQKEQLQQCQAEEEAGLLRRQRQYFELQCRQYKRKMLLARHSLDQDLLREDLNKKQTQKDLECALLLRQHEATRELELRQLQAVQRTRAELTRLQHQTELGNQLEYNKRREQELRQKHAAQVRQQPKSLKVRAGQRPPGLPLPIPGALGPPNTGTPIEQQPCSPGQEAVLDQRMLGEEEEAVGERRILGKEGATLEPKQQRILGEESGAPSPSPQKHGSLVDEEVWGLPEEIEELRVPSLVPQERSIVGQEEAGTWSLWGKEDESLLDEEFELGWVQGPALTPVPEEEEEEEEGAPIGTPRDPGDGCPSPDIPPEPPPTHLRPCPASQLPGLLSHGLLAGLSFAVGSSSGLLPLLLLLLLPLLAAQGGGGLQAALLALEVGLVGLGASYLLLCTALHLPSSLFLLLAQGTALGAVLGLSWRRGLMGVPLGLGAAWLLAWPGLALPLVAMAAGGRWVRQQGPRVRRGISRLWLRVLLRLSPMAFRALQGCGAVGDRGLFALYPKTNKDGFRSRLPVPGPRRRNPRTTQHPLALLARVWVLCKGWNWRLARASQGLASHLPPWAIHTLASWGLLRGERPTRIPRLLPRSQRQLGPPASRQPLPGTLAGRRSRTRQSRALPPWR
UniProt Q9UEE5: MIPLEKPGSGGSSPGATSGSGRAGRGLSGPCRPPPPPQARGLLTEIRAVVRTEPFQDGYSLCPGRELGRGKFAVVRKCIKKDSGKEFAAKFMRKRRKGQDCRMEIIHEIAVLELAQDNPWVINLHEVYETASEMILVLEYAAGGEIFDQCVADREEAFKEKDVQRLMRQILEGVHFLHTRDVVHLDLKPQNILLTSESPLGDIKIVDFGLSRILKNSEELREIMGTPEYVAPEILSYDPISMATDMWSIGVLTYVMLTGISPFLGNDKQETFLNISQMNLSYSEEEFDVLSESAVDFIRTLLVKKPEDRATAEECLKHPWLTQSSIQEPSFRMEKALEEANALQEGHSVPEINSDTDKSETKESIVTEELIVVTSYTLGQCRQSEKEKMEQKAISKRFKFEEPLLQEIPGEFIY
UniProt P54646: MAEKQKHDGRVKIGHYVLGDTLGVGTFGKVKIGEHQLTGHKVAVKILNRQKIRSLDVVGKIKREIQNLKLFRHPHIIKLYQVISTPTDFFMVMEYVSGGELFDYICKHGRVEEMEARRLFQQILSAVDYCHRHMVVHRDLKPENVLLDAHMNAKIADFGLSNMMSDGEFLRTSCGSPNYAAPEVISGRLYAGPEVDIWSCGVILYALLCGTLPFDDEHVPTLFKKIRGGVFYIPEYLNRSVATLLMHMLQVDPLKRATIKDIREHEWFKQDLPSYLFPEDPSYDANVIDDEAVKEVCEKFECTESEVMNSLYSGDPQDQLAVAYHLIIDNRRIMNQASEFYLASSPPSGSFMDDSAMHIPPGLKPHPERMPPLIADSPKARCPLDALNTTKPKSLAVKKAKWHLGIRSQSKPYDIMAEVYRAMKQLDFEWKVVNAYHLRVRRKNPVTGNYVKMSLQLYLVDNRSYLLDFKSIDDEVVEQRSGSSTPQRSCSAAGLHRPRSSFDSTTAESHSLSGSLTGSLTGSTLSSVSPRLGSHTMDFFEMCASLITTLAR
UniProt Q06418, 41-890: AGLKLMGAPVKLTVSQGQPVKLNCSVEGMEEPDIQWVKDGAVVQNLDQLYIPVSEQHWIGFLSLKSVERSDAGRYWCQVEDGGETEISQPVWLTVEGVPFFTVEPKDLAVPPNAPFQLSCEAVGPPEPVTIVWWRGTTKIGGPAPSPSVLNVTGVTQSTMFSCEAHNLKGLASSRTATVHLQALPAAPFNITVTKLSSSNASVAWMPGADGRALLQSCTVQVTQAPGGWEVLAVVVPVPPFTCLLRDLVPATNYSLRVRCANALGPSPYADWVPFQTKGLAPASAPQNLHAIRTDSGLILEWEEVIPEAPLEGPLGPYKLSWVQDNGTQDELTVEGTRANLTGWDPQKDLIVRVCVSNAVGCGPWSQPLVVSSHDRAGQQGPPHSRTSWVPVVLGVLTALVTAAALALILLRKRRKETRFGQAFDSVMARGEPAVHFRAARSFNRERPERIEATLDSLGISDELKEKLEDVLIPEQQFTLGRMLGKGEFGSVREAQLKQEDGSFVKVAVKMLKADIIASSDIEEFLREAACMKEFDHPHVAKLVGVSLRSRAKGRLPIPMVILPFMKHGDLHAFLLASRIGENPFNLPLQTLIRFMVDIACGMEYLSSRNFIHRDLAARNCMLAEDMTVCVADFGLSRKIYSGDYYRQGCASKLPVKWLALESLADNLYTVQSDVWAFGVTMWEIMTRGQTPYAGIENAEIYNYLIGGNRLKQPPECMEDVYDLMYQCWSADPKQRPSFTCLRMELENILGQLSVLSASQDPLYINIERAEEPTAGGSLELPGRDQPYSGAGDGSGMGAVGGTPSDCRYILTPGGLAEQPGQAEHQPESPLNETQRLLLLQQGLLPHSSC
UniProt P45985: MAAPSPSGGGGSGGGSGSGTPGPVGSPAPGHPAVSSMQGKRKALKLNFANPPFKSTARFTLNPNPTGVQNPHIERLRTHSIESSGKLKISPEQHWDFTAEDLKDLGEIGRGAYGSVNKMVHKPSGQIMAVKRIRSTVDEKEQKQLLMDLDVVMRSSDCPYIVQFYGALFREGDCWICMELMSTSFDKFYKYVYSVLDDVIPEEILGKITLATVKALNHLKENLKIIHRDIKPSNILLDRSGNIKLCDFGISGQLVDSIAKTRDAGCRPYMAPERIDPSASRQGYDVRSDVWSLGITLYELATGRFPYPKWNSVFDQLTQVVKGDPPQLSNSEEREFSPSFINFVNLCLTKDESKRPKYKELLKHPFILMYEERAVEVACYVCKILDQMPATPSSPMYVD
UniProt P29323, 19-1055: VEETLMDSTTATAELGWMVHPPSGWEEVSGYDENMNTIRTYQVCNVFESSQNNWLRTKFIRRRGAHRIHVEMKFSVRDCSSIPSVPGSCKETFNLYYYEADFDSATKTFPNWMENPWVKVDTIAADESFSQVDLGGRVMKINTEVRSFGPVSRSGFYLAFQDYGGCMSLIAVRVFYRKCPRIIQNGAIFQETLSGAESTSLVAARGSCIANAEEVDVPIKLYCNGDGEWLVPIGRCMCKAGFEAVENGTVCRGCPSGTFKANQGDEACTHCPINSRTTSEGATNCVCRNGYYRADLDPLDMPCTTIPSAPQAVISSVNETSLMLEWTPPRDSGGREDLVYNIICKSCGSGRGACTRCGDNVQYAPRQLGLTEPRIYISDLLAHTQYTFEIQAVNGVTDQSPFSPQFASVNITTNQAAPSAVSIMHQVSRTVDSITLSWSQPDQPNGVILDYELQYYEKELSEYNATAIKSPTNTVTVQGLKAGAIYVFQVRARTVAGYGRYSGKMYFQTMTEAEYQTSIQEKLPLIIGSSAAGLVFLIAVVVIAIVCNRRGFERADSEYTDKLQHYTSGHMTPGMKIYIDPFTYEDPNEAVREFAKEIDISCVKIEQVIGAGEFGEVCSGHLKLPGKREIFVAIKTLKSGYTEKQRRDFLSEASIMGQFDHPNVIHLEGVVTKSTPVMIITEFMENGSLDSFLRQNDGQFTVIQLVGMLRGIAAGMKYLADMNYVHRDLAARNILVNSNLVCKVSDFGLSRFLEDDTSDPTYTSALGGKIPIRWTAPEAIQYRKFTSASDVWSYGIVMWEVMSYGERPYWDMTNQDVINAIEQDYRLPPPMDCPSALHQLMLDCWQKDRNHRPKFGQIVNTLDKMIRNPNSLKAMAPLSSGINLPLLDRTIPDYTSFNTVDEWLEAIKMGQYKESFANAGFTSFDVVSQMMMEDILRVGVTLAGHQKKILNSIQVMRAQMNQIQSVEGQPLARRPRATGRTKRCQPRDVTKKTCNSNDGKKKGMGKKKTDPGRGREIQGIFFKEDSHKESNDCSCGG
UniProt P08581, 25-1390: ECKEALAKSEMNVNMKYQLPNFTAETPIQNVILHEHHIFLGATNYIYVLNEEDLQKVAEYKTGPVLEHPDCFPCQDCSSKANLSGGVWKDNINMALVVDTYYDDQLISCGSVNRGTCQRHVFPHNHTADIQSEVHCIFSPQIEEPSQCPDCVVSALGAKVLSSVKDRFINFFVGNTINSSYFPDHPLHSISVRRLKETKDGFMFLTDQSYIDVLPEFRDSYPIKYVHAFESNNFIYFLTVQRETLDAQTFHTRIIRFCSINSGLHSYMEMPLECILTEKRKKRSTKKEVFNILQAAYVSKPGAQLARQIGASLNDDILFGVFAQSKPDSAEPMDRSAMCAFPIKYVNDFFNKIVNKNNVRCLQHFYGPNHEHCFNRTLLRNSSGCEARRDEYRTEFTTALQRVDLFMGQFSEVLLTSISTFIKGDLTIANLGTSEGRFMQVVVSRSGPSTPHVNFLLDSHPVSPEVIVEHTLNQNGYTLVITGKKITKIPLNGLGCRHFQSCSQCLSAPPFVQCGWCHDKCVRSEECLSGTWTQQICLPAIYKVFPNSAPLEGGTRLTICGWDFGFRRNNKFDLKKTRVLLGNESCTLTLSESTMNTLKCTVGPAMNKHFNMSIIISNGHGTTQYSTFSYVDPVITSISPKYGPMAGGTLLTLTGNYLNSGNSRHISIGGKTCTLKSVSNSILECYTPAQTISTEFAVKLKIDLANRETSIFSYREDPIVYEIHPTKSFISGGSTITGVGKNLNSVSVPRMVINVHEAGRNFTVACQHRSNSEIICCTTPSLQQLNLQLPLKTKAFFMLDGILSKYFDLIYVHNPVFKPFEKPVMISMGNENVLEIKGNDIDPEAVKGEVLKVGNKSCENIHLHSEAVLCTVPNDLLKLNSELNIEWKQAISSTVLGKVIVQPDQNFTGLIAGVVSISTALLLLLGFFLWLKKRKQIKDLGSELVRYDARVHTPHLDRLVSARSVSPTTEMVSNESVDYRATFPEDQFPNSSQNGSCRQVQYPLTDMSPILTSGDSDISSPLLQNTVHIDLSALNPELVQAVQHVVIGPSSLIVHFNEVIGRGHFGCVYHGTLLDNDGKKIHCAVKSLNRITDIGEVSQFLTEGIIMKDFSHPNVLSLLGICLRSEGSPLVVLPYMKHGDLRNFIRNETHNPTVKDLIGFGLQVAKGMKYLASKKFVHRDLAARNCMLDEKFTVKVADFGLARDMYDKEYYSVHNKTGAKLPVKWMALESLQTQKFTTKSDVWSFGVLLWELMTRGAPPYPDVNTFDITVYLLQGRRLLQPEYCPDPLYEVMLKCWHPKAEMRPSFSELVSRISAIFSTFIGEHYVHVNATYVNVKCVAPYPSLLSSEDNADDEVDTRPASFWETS

Columns and labels:
PKCb1 = target: T1, PKCb1 (Homo sapiens, UniProt P05771); assay type: biochemical; conditions: 10µM
T1 construct: purchased Reaction Biology Corporation

PDGFRb = target: T2, PDGFRb (Homo sapiens, UniProt P09619); assay: HotSpot kinase assay; assay type: biochemical; conditions: 10µM
T2 construct: purchased Reaction Biology Corporation

TAOK2/TAO1 = target: T3, TAOK2/TAO1 (Homo sapiens, UniProt Q9UL54); assay: HotSpot kinase assay; assay type: biochemical; conditions: 10µM
T3 construct: purchased Reaction Biology Corporation

FYN = target: T4, FYN (Homo sapiens, UniProt P06241); assay: HotSpot kinase assay; assay type: biochemical; conditions: 10µM
T4 construct: purchased Reaction Biology Corporation

RIPK4 = target: T5, RIPK4 (Homo sapiens, UniProt P57078); assay: HotSpot kinase assay; assay type: biochemical; conditions: 10µM
T5 construct: purchased Reaction Biology Corporation

PHKg1 = target: T6, PHKg1 (Homo sapiens, UniProt Q16816); assay: HotSpot kinase assay; assay type: biochemical; conditions: 10µM
T6 construct: purchased Reaction Biology Corporation

STK39/STLK3 = target: T7, STK39/STLK3 (Homo sapiens, UniProt Q9UEW8); assay: HotSpot kinase assay; assay type: biochemical; conditions: 10µM
T7 construct: purchased Reaction Biology Corporation

AXL = target: T8, AXL (Homo sapiens, UniProt P30530); assay: HotSpot kinase assay; assay type: biochemical; conditions: 10µM
T8 construct: purchased Reaction Biology Corporation

DRAK1/STK17A = target: T9, DRAK1/STK17A (Homo sapiens, UniProt Q9UEE5); assay: HotSpot kinase assay; assay type: biochemical; conditions: 10µM
T9 construct: purchased Reaction Biology Corporation

ERK2/MAPK1 = target: T10, ERK2/MAPK1 (Homo sapiens, UniProt P28482); assay: HotSpot kinase assay; assay type: biochemical; conditions: 10µM
T10 construct: purchased Reaction Biology Corporation

TAOK1 = target: T11, TAOK1 (Homo sapiens, UniProt Q7L7X3); assay: HotSpot kinase assay; assay type: biochemical; conditions: 10µM
T11 construct: purchased Reaction Biology Corporation

STK21/CIT = target: T12, STK21/CIT (Homo sapiens, UniProt O14578); assay: HotSpot kinase assay; assay type: biochemical; conditions: 10µM
T12 construct: purchased Reaction Biology Corporation

AMPK(A2/B2/G3) = target: T13, AMPK(A2/B2/G3) (Homo sapiens, UniProt P54646); assay: HotSpot kinase assay; assay type: biochemical; conditions: 10µM
T13 construct: purchased Reaction Biology Corporation

SIK2 = target: T14, SIK2 (Homo sapiens, UniProt Q9H0K1); assay: HotSpot kinase assay; assay type: biochemical; conditions: 10µM
T14 construct: purchased Reaction Biology Corporation

TSSK2 = target: T15, TSSK2 (Homo sapiens, UniProt Q96PF2); assay: HotSpot kinase assay; assay type: biochemical; conditions: 10µM
T15 construct: purchased Reaction Biology Corporation

JAK1 = target: T16, JAK1 (Homo sapiens, UniProt P23458); assay: HotSpot kinase assay; assay type: biochemical; conditions: 10µM
T16 construct: purchased Reaction Biology Corporation

WNK2 = target: T17, WNK2 (Homo sapiens, UniProt Q9Y3S1); assay: HotSpot kinase assay; assay type: biochemical; conditions: 10µM
T17 construct: purchased Reaction Biology Corporation

MAPKAPK3 = target: T18, MAPKAPK3 (Homo sapiens, UniProt Q16644); assay: HotSpot kinase assay; assay type: biochemical; conditions: 10µM
T18 construct: purchased Reaction Biology Corporation

TYRO3/SKY = target: T19, TYRO3/SKY (Homo sapiens, UniProt Q06418); assay: HotSpot kinase assay; assay type: biochemical; conditions: 10µM
T19 construct: purchased Reaction Biology Corporation

EPHA8 = target: T20, EPHA8 (Homo sapiens, UniProt P29322); assay: HotSpot kinase assay; assay type: biochemical; conditions: 10µM
T20 construct: purchased Reaction Biology Corporation

ERBB4/HER4 = target: T21, ERBB4/HER4 (Homo sapiens, UniProt Q15303); assay: HotSpot kinase assay; assay type: biochemical; conditions: 10µM
T21 construct: purchased Reaction Biology Corporation

MKK4 = target: T22, MKK4 (Homo sapiens, UniProt P45985); assay: HotSpot kinase assay; assay type: biochemical; conditions: 10µM
T22 construct: purchased Reaction Biology Corporation

PKCg = target: T23, PKCg (Homo sapiens, UniProt P05129); assay: HotSpot kinase assay; assay type: biochemical; conditions: 10µM
T23 construct: purchased Reaction Biology Corporation

TESK1 = target: T24, TESK1 (Homo sapiens, UniProt Q15569); assay: HotSpot kinase assay; assay type: biochemical; conditions: 10µM
T24 construct: purchased Reaction Biology Corporation

JAK2 = target: T25, JAK2 (Homo sapiens, UniProt O60674); assay: HotSpot kinase assay; assay type: biochemical; conditions: 10µM
T25 construct: purchased Reaction Biology Corporation

FMS = target: T26, FMS (Homo sapiens, UniProt P07333); assay: HotSpot kinase assay; assay type: biochemical; conditions: 10µM
T26 construct: purchased Reaction Biology Corporation

PHKg2 = target: T27, PHKg2 (Homo sapiens, UniProt P15735); assay: HotSpot kinase assay; assay type: biochemical; conditions: 10µM
T27 construct: purchased Reaction Biology Corporation

ARK5/NUAK1 = target: T28, ARK5/NUAK1 (Homo sapiens, UniProt O60285); assay: HotSpot kinase assay; assay type: biochemical; conditions: 10µM
T28 construct: purchased Reaction Biology Corporation

PKCmu/PRKD1 = target: T29, PKCmu/PRKD1 (Homo sapiens, UniProt Q15139); assay: HotSpot kinase assay; assay type: biochemical; conditions: 10µM
T29 construct: purchased Reaction Biology Corporation

EPHB2 = target: T30, EPHB2 (Homo sapiens, UniProt P29323); assay: HotSpot kinase assay; assay type: biochemical; conditions: 10µM
T30 construct: purchased Reaction Biology Corporation

MAST3 = target: T31, MAST3 (Homo sapiens, UniProt O60307); assay: HotSpot kinase assay; assay type: biochemical; conditions: 10µM
T31 construct: purchased Reaction Biology Corporation

DDR1 = target: T32, DDR1 (Homo sapiens, UniProt Q08345); assay: HotSpot kinase assay; assay type: biochemical; conditions: 10µM
T32 construct: purchased Reaction Biology Corporation

AMPK(A1/B1/G3) = target: T33, AMPK(A1/B1/G3) (Homo sapiens, UniProt Q13131); assay: HotSpot kinase assay; assay type: biochemical; conditions: 10µM
T33 construct: purchased Reaction Biology Corporation

CAMK2d = target: T34, CAMK2d (Homo sapiens, UniProt Q13557); assay: HotSpot kinase assay; assay type: biochemical; conditions: 10µM
T34 construct: purchased Reaction Biology Corporation

DYRK1B = target: T35, DYRK1B (Homo sapiens, UniProt Q9Y463); assay: HotSpot kinase assay; assay type: biochemical; conditions: 10µM
T35 construct: purchased Reaction Biology Corporation

PKCzeta = target: T36, PKCzeta (Homo sapiens, UniProt Q05513); assay: HotSpot kinase assay; assay type: biochemical; conditions: 10µM
T36 construct: purchased Reaction Biology Corporation

DNA-PK = target: T37, DNA-PK (Homo sapiens, UniProt P78527); assay: HotSpot kinase assay; assay type: biochemical; conditions: 10µM
T37 construct: purchased Reaction Biology Corporation

c-MET = target: T38, c-MET (Homo sapiens, UniProt P08581); assay type: biochemical; conditions: 10µM
T38 construct: purchased Reaction Biology Corporation

MEK3 = target: T39, MEK3 (Homo sapiens, UniProt P46734); assay: HotSpot kinase assay; assay type: biochemical; conditions: 10µM
T39 construct: purchased Reaction Biology Corporation

MNK2 = target: T40, MNK2 (Homo sapiens, UniProt Q9HBH9); assay: HotSpot kinase assay; assay type: biochemical; conditions: 10µM
T40 construct: purchased Reaction Biology Corporation

HaCat cells = assay: viability of confluent cells; assay type: cell-based, human; conditions: 10 μM, 24 h, replicates (Fig 1c source data)
ALK = target: T41, ALK (Homo sapiens, UniProt Q9UM73); assay: HotSpot kinase assay; assay type: biochemical; conditions: 10µM
T41 construct: purchased Reaction Biology Corporation

MASTL = target: T42, MASTL (Homo sapiens, UniProt Q96GX5); assay: HotSpot kinase assay; assay type: biochemical; conditions: 10µM
T42 construct: purchased Reaction Biology Corporation

CO[C@@H]1[C@H](N(C)C(=O)CCC(=O)NCc2cn(CCCS(=O)(=O)O)nn2)C[C@H]2O[C@]1(C)n1c3ccccc3c3c4c(c5c6ccccc6n2c5c31)C(=O)NC4 [CIMSS]
% Enzyme Activity (relative to DMSO controls) (PKCb1): 2.30% | % Enzyme Activity (relative to DMSO controls) (PDGFRb): 1.79% | % Enzyme Activity (relative to DMSO controls) (TAOK2/TAO1): 35.06% | % Enzyme Activity (relative to DMSO controls) (FYN): 2.44% | % Enzyme Activity (relative to DMSO controls) (RIPK4): 98.47% | % Enzyme Activity (relative to DMSO controls) (PHKg1): 3.44% | % Enzyme Activity (relative to DMSO controls) (STK39/STLK3): 18.27% | % Enzyme Activity (relative to DMSO controls) (AXL): 3.52% | % Enzyme Activity (relative to DMSO controls) (DRAK1/STK17A): 17.55% | % Enzyme Activity (relative to DMSO controls) (ERK2/MAPK1): 74.09% | % Enzyme Activity (relative to DMSO controls) (TAOK1): 6.33% | % Enzyme Activity (relative to DMSO controls) (STK21/CIT): 81.15% | % Enzyme Activity (relative to DMSO controls) (AMPK(A2/B2/G3)): 0.61% | % Enzyme Activity (relative to DMSO controls) (SIK2): 1.17% | % Enzyme Activity (relative to DMSO controls) (TSSK2): 21.04% | % Enzyme Activity (relative to DMSO controls) (JAK1): -0.15% and -0.64% | % Enzyme Activity (relative to DMSO controls) (WNK2): 69.29% | % Enzyme Activity (relative to DMSO controls) (MAPKAPK3): 85.18% | % Enzyme Activity (relative to DMSO controls) (TYRO3/SKY): 23.35% | % Enzyme Activity (relative to DMSO controls) (EPHA8): 69.23% | % Enzyme Activity (relative to DMSO controls) (ERBB4/HER4): 24.80% | % Enzyme Activity (relative to DMSO controls) (MKK4): 97.17% | % Enzyme Activity (relative to DMSO controls) (PKCg): 1.53% | % Enzyme Activity (relative to DMSO controls) (TESK1): 82.57% | % Enzyme Activity (relative to DMSO controls) (JAK2): 0.89% | % Enzyme Activity (relative to DMSO controls) (FMS): 0.92% | % Enzyme Activity (relative to DMSO controls) (PHKg2): 17.90% | % Enzyme Activity (relative to DMSO controls) (ARK5/NUAK1): 1.45% | % Enzyme Activity (relative to DMSO controls) (PKCmu/PRKD1): 28.32% | % Enzyme Activity (relative to DMSO controls) (EPHB2): 27.11% | % Enzyme Activity (relative to DMSO controls) (MAST3): 104.37% | % Enzyme Activity (relative to DMSO controls) (DDR1): 0.67% | % Enzyme Activity (relative to DMSO controls) (AMPK(A1/B1/G3)): 0.22% and 0.07% | % Enzyme Activity (relative to DMSO controls) (CAMK2d): 0.88% | % Enzyme Activity (relative to DMSO controls) (DYRK1B): 0.35% | % Enzyme Activity (relative to DMSO controls) (PKCzeta): 55.85% | % Enzyme Activity (relative to DMSO controls) (DNA-PK): 95.76% | % Enzyme Activity (relative to DMSO controls) (c-MET): 9.84% | % Enzyme Activity (relative to DMSO controls) (MEK3): 47.29% | % Enzyme Activity (relative to DMSO controls) (MNK2): 4.76% | viability, odu as a percentage of the DMSO control (HaCat cells): 114% | % Enzyme Activity (relative to DMSO controls) (ALK): 3.76% | % Enzyme Activity (relative to DMSO controls) (MASTL): 33.66%
